In patent publication US7339023B2, “Partial peptide mimetics and methods” (Regents of the University of Minnesota, priority 2002, dated 2008):

Legend:
[1] = Water solubility (observed during NMR work); assay type: physicochemical
[2] = Toxicity assays (body weight, behavior, hematocrit, creatinine, autopsy); assay type: in vivo, mice; conditions: for Signs of toxicity (behavior, weight gain): all in vivo experiments, data not shown; for Macro- and microscopic morphology of internal organs on autopsy: mouse, in vivo; for Creatinine levels / Hematocrit levels: one day after terminating treatment, relative to control
Method: As an indirect measurement of general toxicity, body weights of mice were monitored twice weekly, using a digital balance (Ohaus Florham, N.J.). To determine hematocrit and creatinine levels, blood samples were extracted by tail vein bleedings one day after terminating treatment and blood was collected in heparinized micro-bematocrit capillary tubes (Fisher; Pittsburgh, Pa.). For hematocrit levels, samples were spun down for 10 minutes in a micro-hematocrit centrifuge (Clay-Adams; NY), and the amount of hematocrit was determined using an international microcapillary reader (IEC; Needham, Mass.). To obtain creatinine levels, a kit was purchased from Sigma (Sigma Diagnostics; St Louis, Mo.) and used according to the manufacturer's instructions.

Substance	Water solubility [1]	Signs of toxicity (behavior, weight gain) [2]	Macro- and microscopic morphology of internal organs on autopsy [2]	Creatinine levels [2]	Hematocrit levels [2]
SVQMKL-[DBF]-IIVKLND [6DBF7]	limited water solubility	did not show any sign of toxicity	normal	normal relative to control	normal relative to control
ANIKLSVQMKL-[DBF]-IIVKLND [11DBF7]	limited water solubility	did not show any sign of toxicity	normal	normal relative to control	normal relative to control
